Data: US9447134B2 (priority 2012, dated 2016)

By UniProt entry, the sequences of proteins in these tests, tags left out. Where a name states a change or a piece, a line headed by the entry shows the natural chain unless it says otherwise.
UniProt Q8T6T2: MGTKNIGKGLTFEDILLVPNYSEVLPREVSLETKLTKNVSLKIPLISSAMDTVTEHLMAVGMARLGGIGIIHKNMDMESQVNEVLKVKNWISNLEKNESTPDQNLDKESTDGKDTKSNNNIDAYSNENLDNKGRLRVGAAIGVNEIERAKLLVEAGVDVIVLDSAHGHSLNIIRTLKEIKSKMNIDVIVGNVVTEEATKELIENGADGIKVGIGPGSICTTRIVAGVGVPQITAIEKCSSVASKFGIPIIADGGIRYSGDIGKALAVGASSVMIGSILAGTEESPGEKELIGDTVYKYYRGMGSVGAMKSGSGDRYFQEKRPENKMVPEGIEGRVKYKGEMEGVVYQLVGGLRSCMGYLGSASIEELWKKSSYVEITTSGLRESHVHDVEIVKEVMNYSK

Experiments:
[1] = biological target: T1, C. parvum/C. hominis IMPDH (CpIMPDH), recombinant, purified from E. coli (Cryptosporidium parvum, UniProt Q8T6T2); assay: biochemical
[2] = biological target: T1, C. parvum/C. hominis IMPDH (CpIMPDH), recombinant, purified from E. coli; settings: read-out: CpIMPDH IC50 (+) BSA

`COc1cc(NC(=O)Cc2nn(C)c(=O)c3ccccc23)ccc1Cl` [Compound D69] gave an IC50 [1] of 31 nM.
`CC(=NO)c1cccc(C(C)(C)NC(=O)Nc2ccc(Cl)c([N+](=O)[O-])c2)c1` [Compound P-96] showed an IC50 [1] of 1.3 nM.
`CC(Oc1ccc(Cl)cc1Cl)C(=O)Nc1ccc2oc(-c3ccccn3)nc2c1` (centres unmarked) [Compound Q22] gave an IC50 [1] of 183 nM.
For `CC(Oc1cccc([N+](=O)[O-])c1Cl)C(=O)Nc1ccc2oc(-c3ccncc3)nc2c1` (centres unmarked) [Compound Q52], the IC50 [1] was 2.6 nM.
`CC(Oc1cccc(C(F)(F)F)c1Cl)C(=O)Nc1ccc2oc(-c3ccncc3)nc2c1` (centres unmarked) [Compound Q53] showed an IC50 [1] of 12 nM.
In the case of `CC(C)C(Oc1cccc2ccccc12)C(=O)Nc1ccc2oc(-c3ccncc3)nc2c1` (centres unmarked) [Compound Q54, 3-methyl-2-(naphthalene-1-yloxy)-N-(2-(pyridine-4-yl)benzo[d]oxazol-5-yl) butanamide], the IC50 [1] is reported as 21 nM.
In the case of `CC(Nc1cccc(Cl)c1Cl)C(=O)Nc1ccc2oc(-c3ccncc3)nc2c1` (centres unmarked) [Compound Q60, 2-(2,3-dichlorophenylamino)-N-(2-(pyridine-4-yl)benzo[d]oxazol-5-yl)propanamide], the IC50 [1] is reported as 1.9 ± 1.13 nM and the IC50 [2] is reported as 1.8 ± 0.52 nM.
`CC(NC(=O)c1ccc2oc(-c3ccncc3)nc2c1)c1ccccc1` (centres unmarked) [Compound Q63] gave an IC50 ([1]; […]) of 200000 nM.
`C[C@H](Nc1cccc(Cl)c1Cl)C(=O)Nc1ccc2oc(-c3ccncc3)nc2c1` [Compound Q67, (S)-2-(2,3-dichlorophenylamino)-N-(2-(pyridine-4-yl)benzo[d]oxazol-5-yl)propanamide] showed an IC50 ([1]; CpIMPDH IC50 (-) BSA) of 0.53 ± 0.19 nM, an IC50 ([1]; […]) of 2.6 nM and an IC50 [2] of 1.1 ± 0.05 nM.
In the case of `C[C@H](Nc1cccc2ccccc12)C(=O)Nc1ccc2oc(-c3ccncc3)nc2c1` [Compound Q74, (S)-2-(naphthalen-1-ylamino)-N-(2-(pyridin-4-yl)benzo[d]oxazol-5-yl)propanamide], the IC50 [1] is reported as 14.6 ± 6.3 nM and the IC50 [2] is reported as 15 ± 3.6 nM.

Read-outs that look alike come from different tables or passages of the source.
